Reference: PubChem BioAssay AID411 (National Center for Advancing Translational Sciences (NCATS), 2006)
The entries are a selection whose mix differs from that of the whole data set. Calls of active or inactive are those of the source. Calls follow the shape of the dose curve; as a rule, active = well fitted inhibition curve with a large enough effect; inconclusive = small, poorly fitted or top-dose-only effect; inactive = flat fitted curve, though single readings scatter.

Protein sequences, listed by entry. Tags and fused reporters are not part of them.
UniProt P08659, whole entry: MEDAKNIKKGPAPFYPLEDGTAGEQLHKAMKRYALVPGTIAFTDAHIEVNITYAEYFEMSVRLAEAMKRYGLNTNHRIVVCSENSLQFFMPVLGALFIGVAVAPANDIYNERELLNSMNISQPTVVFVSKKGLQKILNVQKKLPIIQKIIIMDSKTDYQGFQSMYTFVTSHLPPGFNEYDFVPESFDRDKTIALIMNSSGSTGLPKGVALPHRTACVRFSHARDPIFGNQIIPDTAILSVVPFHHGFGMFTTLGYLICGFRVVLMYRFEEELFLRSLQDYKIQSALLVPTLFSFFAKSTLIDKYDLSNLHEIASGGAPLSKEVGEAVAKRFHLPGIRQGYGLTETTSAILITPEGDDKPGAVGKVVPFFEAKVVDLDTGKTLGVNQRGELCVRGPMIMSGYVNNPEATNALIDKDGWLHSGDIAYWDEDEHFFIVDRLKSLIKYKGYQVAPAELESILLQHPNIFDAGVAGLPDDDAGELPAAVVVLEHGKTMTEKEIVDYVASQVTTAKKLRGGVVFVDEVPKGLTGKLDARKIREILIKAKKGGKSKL

These compounds were tested against Luciferin 4-monooxygenase (Photinus pyralis) (UniProt P08659) (assay: qHTS Assay for Inhibitors of Firefly Luciferase). Conditions: purified firefly luciferase, luminescence, 8 min; at 57.1 µM (top of the series) unless noted.
Method: To aid in the interpretation of high-throughput screening (HTS) results derived from luciferase-based assays, we used quantitative HTS, an approach that defines the concentration-response behavior of each library sample, to profile the ATP-dependent luciferase from Photinus pyralis against more than 72 000 samples. Luciferase (PKLight, Cambrex Corporation) was assayed for its ability to generate light using ATP and luciferin as substrates. The ATP concentration in the assay (10 uM) was within the linear range of enzyme activity for the assay conditions used. See following reference for further details: [1] Auld DS, Southall NT, Jadhav A, Johnson RL, Diller DJ, Simeonov A, Austin CP, Inglese J. Characterization of chemical libraries for luciferase inhibitory activity. J Med Chem. 2008 Apr 24;51(8):2372-86. Auld DS, Zhang YQ, Southall NT, Rai G, Landsman M, Maclure J, Langevin D, Thomas CJ, Austin CP, Inglese J. A Basis for Reduced Chemical Library Inhibition of Firefly Luciferase Obtained from Directed Evolution. J. Med. Chem., 2009, 52 (5), pp 1450#1458 [3] Auld DS, Thorne N, Nguyen DT, Inglese J. A specific mechanism for nonspecific activation in reporter-gene assays. ACS Chem Biol. 2008 Aug 15;3(8):463-70. Auld DS, Thorne N, Maguire WF, Inglese J. Mechanism of PTC124 activity in cell-based luciferase assays of nonsense codon suppression. Proc Natl Acad Sci U S A. 2009 Mar 3;106(9):3585-90. Inglese J, Auld DS, Jadhav A, Johnson RL, Simeonov A, Yasgar A, Zheng W, Austin CP. Quantitative high-throughput screening: a titration-based approach that efficiently identifies biological activities in large chemical libraries. Proc Natl Acad Sci U S A. 2006 Aug 1;103(31):11473-8.
Four uL of substrate mix (final concentration, 50 mM imidazole pH 7.2, 50 mM KCl, 7 mM MgCl2, 10 uM ATP, 0.01% Tween 20, 0.05% BSA) was dispensed into white 1536 well plates. Twenty-three nL of compound was delivered by a pin tool and 2 uL of luciferase detector mix (PKLight, Cambrex) was added. Following 8-minute incubation at ambient temperature, luminescence was measured by a ViewLux (Perkin Elmer) at 5 seconds exposure/plate.
% is scaled to controls: 0 for no effect and ±100 for the full control effect.
Also: nearly all actives have a fitted effect of over 40% in size.

SMILES | activity change, negative = inhibition
COc1ccccc1OP(C)(=O)Nc1ccc(C)cc1 (configuration not stated) | inactive: -1.05%
Cc1ccc(NP(C)(=O)Oc2ccccc2)c(C)c1 (configuration not stated) | inactive: -1.57%
CP(=S)(Nn1cnnc1)Oc1ccccc1 (configuration not stated) | inactive: 1.68%
N1=C(c2nnc(-c3nn[nH]n3)nn2)NNN1 | inactive: -1.67% [at 11.4 µM]
CCOP(C)(=S)SCC(=O)NC(C)C(=O)O (configuration not stated) | inactive: -0.61%
CP(=O)(NC(=O)Nc1ccccc1)Oc1ccccc1 (configuration not stated) | inactive: -0.0318%
Cc1nc2ccc3ccccc3c2s1.O=[N+]([O-])c1cc([N+](=O)[O-])c(O)c([N+](=O)[O-])c1 | inactive: -4.72%
Cc1ccc(C)c(NP(C)(=O)Oc2ccccc2)c1 (configuration not stated) | inactive: 1.09%
CP(=O)(Nc1ccccc1F)Oc1ccccc1 (configuration not stated) | inactive: 0.049%
CN(C)CCOC(=O)C(O)(c1ccccc1)C1CCCCC1 (configuration not stated) | inactive: 1.8%
Cc1ccccc1NP(C)(=O)Nc1ccccc1C | inactive: -0.539%
NNC(NN)NN.n1nc(-c2nn[nH]n2)n[nH]1 | inactive: -0.149% [at 11.4 µM]
CP(=O)(Nc1ccc2c(c1)OCCO2)Oc1ccccc1 (configuration not stated) | inactive: 1.61%
CCOP(C)(=S)SCC(=O)NC(C)(CC)C(=O)O (configuration not stated) | inactive: -0.642%
COc1ccccc1OP(C)(=O)Nc1c(C)n(C)n(-c2ccccc2)c1=O (configuration not stated) | inactive: 3.28%
CP(=O)(Oc1ccccc1)N1CCOC1=O (configuration not stated) | inactive: -0.921%
CCN(CC)CC(O)COC(=O)C(O)(c1ccccc1)C1CCCCC1 (configuration not stated) | inactive: -0.988% [at 25.5 µM]
N#[O+].[C-]#N.[C-]#N.[C-]#N.[C-]#N.[C-]#N.[Fe+2].[Na+].[Na+] | inactive: -1.87%
C/C1=C2N=C(/C=C3N=C(/C(C)=C4\[N-][C@@](C)([C@H]5N=C1[C@@](C)(CCC(=O)NC[C@H](C)OP(=O)([O-])O[C@@H]1[C@H](O)[C@H](n6cnc7cc(C)c(C)cc76)O[C@@H]1CO)[C@@H]5CC(N)=O)[C@](C)(CC(N)=O)[C@H]4CCC(N)=O)[C@@](C)(CC(N)=O)[C@@H]\3CCC(N)=O)C(C)(C)[C@@H]/2CCC(N)=O.[C-]#N.[Co+3] | inactive: -0.85% [at 25.5 µM]
Cc1nc2ccc3ccccc3c2o1.O=[N+]([O-])c1cc([N+](=O)[O-])c(O)c([N+](=O)[O-])c1 | inactive: -10.9%
COc1ccccc1OP(C)(=O)Nc1ccc(C)c(C)c1 (configuration not stated) | inactive: -0.824%
CP(=O)(Nc1ccccn1)Oc1ccccc1 (configuration not stated) | inactive: 1.51%
